## Measured affinities in a library of Ab-14 heavy chain variants

Binding partner: SARS-CoV-2 spike HR2 peptide, sequence PDVDLGDISGINAS.

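In library AAYL49, one, two or three CDR residues were substituted; doubles and triples were drawn at random. AlphaSeq pools MATa yeast showing the antibodies with MATalpha yeast showing the peptide. After mating in shaken culture at 30 °C for 16 h, diploids were selected and their barcode pairs sequenced. A regression on co-assayed BCL2-family reference pairs converts the normalised counts of each replicate to an apparent Kd. The assay was run in three technical replicates.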

Ab-14 is the parent antibody, in scFv form: VH, then a 15-residue (Gly4Ser)3 linker, then VL. The light chain is unchanged in all variants.
VH: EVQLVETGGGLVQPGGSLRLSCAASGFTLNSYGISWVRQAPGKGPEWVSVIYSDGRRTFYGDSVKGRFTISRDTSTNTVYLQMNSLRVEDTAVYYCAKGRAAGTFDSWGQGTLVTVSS
VL: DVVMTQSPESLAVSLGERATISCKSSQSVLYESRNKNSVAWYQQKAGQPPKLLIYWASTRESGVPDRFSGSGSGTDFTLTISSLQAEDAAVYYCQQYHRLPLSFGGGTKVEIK

Each variant is given by its three heavy chain CDRs, as the data file delimits them; those of the parent are GFTLNSYGIS, VIYSDGRRTFYGDSVK, GRAAGTFDS.
Affinities are written as log10 Kd with Kd in nM; a lower number is a better binder.
The mean shown is taken over the replicates in which the pair was detected.
Where no diploid with the target was found in that replicate, the entry reads "nd": below detection, most likely a poor binder, though not proof of it.
As a blank, each scFv also met three strains without target: over library AAYL49, 15% of these pairings were detected, typically at 4.06 and seldom below 2.83.
For reference, the parent read 0.65 as the reference entry and 4.11 (one replicate of three) as a member of this library.

CDR-H1,CDR-H2,CDR-H3,"log10 Kd, replicates","log10 Kd (nM), mean"
GFTLNSYGIS,VIYSDGRRTFYGDSVK,GMAEGHFDS,nd / nd / nd,nd
GFTLNGYGIS,VIYSDGRRSFYGDSVK,CRAAGTFDS,nd / nd / nd,nd
GMTLNSYGIS,VIYSDGRRNPYGDSVK,GRAAGTFDS,nd / nd / nd,nd
GFTLNSMGFS,VIYSDGRRTFYGDSVK,GRAASTFDS,nd / nd / 3.74,3.74
GFTLNSYGIE,VIYSDGRRTFRGDSVK,GRAAGTWDS,nd / nd / nd,nd
GFTLNSYGIS,VIYSDGRRTFYGDCVK,SRAAGTFAS,nd / nd / nd,nd
GFMLNSYGIS,VIYSDDRRNFYGDSVK,GRAAGTFDS,nd / nd / nd,nd
GFVLTSYGIS,VIQSDGRRTFYGDSVK,GRAAGTFDS,nd / 3.89 / 4.79,4.34
GFTLNSYYIS,VIYTDGRRTFYGDSHK,GRAAGTFDS,nd / nd / nd,nd
GVTLNSYGIS,VIQSDGRRTFYGDSVK,GRAAKTFDS,5.06 / nd / nd,5.06
GFTLNSYGIS,WIYSDGRRTFYGDSVK,GRTAGEFDS,nd / nd / nd,nd
GFTLNSYGIY,VIYSDGRRTFTDDSVK,GRAAGTFDS,nd / nd / 4.31,4.31
GFTLNSYGIS,VIYSDGRETFYGDSVK,GRHAGPFDS,nd / 3.38 / 4.60,3.99
NFTLNSYGIS,VIYSDGRRTFYGDSFK,GRAAGTFDL,1.92 / 1.55 / 1.59,1.69
GFTLNSYGIS,GIYSDGDRTFYGDSVK,GRVAGTFDS,3.96 / 3.51 / nd,3.73
GFTLNSYGIS,VEYSDGRRTFYHDWVK,GRAAGTFDS,nd / 4.91 / nd,4.91
GFTLNSYGIS,VIYSDGRATFYGDSVK,NRAAGTFDW,nd / 5.11 / nd,5.11
GFTNNSYGIS,VIYSDGRRTNYGDSEK,GRAAGTFDS,nd / nd / nd,nd
GWTLNSYGIS,VIYMDGRRTFYGDSVK,GRCAGTFDS,nd / nd / nd,nd
GFTHNSYGIS,SIYSDGRRTFYGDSVK,PRAAGTFDS,nd / 3.96 / nd,3.96
GFTLNSYQIS,VIYSDGRRTFRGDSVK,GTAAGTFDS,5.04 / 3.67 / 5.20,4.64
GFTLNSYGCS,VIYSDGRRTFYGDSVK,GRAAATFDS,nd / nd / nd,nd
GFTLNSYGIS,VIYSDGRRWFEGDDVK,GRAAGTFDS,nd / nd / nd,nd
GFTLNRYGMH,VIYSDGRRTFYGDSVK,GRAAGTFDS,nd / 3.30 / 4.10,3.70
GFTLNSYGIS,VIYSHGRDTFYGDSVK,GRAAGTFDS,nd / nd / nd,nd
GTTLNSYGIS,VIYSDGRRTFYGDSVK,GRAAGPYDS,5.24 / nd / nd,5.24
GFTLTSYGIS,VIYSDGRRTFYGDSVQ,GRAAGTFCS,nd / nd / nd,nd
GFTRCSYGIS,VIYSDGHRTFYGDSVK,GRAAGTFDS,nd / 3.04 / nd,3.04
GFTLNSYGIS,VQYSDGRRTFYGDSVP,GRAVGTFDS,nd / 3.95 / nd,3.95
GFTLNDYGIS,VIYSDGRRTIYGDSVK,GRALGTFDS,nd / nd / nd,nd
GFTLNCYGIS,VIYSDGRRTVYGDSVK,GRAAGTFNS,nd / nd / nd,nd
GFTLNSYGIS,VIYSDGRRKFYGDSFK,GGAAGTFDS,1.85 / 2.42 / 1.36,1.88
GFTLNSYGIS,VSYSDGRRTFYGDSSK,GRAAFTFDS,4.08 / 4.16 / 4.76,4.33
GFTLNSYGIS,VIYSKGRRTFYGDSVK,GRAAHNFDS,nd / nd / nd,nd

Data: MIT Lincoln Laboratory AlphaSeq set, Engelhart et al. 2022, doi:10.1038/s41597-022-01779-4, as distributed in FLAb.